The target in experiment [1] is T1, Phosphatidylinositol 3,4,5-trisphosphate 5-phosphatase 2 (Homo sapiens, UniProt O15357).
T1 sequence (O15357 whole entry): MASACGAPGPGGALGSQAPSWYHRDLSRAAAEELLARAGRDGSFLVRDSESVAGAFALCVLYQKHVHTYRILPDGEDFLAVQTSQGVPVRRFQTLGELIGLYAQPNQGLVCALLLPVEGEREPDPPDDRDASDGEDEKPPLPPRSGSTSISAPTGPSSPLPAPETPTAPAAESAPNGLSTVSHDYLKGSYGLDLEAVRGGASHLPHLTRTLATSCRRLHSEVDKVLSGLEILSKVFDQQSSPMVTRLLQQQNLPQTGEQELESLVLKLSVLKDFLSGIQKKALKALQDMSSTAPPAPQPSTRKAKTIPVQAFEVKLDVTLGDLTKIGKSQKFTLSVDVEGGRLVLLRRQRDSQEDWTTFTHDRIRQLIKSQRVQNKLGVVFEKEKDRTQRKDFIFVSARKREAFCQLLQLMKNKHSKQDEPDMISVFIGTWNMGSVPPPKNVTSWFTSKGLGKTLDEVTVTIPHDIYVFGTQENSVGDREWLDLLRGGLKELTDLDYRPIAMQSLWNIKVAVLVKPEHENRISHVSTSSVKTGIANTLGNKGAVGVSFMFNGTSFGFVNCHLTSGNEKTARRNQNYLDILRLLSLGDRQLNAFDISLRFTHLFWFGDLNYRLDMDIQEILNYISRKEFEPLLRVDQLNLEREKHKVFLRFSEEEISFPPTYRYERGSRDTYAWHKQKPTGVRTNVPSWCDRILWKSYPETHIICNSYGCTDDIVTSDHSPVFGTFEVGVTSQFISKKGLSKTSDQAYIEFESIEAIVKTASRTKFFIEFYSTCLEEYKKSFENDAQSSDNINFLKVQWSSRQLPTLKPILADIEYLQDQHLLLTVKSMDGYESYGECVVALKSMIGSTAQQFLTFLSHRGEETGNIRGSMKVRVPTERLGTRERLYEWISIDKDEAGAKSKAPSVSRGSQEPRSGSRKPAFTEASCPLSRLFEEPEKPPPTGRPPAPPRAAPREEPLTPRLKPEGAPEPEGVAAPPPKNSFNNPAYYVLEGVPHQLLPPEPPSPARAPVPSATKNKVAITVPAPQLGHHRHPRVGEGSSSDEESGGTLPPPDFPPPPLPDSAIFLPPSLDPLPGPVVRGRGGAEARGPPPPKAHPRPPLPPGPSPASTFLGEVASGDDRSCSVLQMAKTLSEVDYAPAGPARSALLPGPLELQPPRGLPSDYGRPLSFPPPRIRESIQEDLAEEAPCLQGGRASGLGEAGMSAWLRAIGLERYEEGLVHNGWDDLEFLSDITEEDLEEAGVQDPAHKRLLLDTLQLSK
Put plainly: Inhibition of human SHIP-2 (420 to 732 residues) catalytic domain expressed in Rosetta DE3 BL21 cells using -(1,2-dioctanoylphosphatidyflinosito1-3,4,5-trisphosphate as substrate by malachite green based spectramax microplate reader analysis.

The target of experiment [2] is T1, Phosphatidylinositol 3,4,5-trisphosphate 5-phosphatase 2. The experiment can be described thus: Inhibition of SHIP-2 (unknown origin) using PtdIns(3,4,5)P3 as substrate by malachite green solution based fluorescence polarization analysis.

Molecules are shown by their SMILES.

Three compounds from ChEMBL document CHEMBL6092211, “Discovery and evaluation of novel SHIP-1 inhibitors” (Bioorg Med Chem, 2024) can be followed below.

As for `Cc1oc(-c2ccccc2Cl)nc1Cn1cccc1C1=NC(c2ccccc2)CO1` (stereo not drawn), in experiment [1], the IC50 came out at 116 µM. `CC(C)CCC[C@@H](C)[C@H]1CC[C@H]2[C@@H]3CC[C@H]4C[C@H](N)CC[C@]4(C)[C@H]3CC[C@]12C`: the half-maximal inhibitory concentration (IC50) in experiment [2] is > 1000 µM. For the compound `CC(=O)C1=C(C)Nc2sc(C(=O)c3ccc(Cl)c(Cl)c3)c(N)c2C1c1cccnc1` (stereo not drawn), the IC50 in experiment [1] was > 200 µM.

For orientation: IC50 means the concentration needed to halve the response being measured.
